Source: patent publication US9820966B2, “Stabilized statin formulations” (Cumberland Pharmaceuticals Inc., priority 2010, dated 2017)

Assay: Solubility in basic solutions without cyclodextrin (HPLC)
Details: Sample 4: 20 mg AS in 1 mL, 0.05 M Na3PO4; pH 11.55; LOQ = Limit of Quantitation

## CC(C)c1c(C(=O)Nc2ccccc2)c(-c2ccccc2)c(-c2ccc(F)cc2)n1CC[C@@H](O)C[C@@H](O)CC(=O)O [AS, Atorvastatin free acid]
  resulting AS concentration: < LOQ
